{"sequences": {"note": "Sequences of proteins named here, by UniProt entry; tags and fusion partners are left off.", "UniProt P33535, whole entry": "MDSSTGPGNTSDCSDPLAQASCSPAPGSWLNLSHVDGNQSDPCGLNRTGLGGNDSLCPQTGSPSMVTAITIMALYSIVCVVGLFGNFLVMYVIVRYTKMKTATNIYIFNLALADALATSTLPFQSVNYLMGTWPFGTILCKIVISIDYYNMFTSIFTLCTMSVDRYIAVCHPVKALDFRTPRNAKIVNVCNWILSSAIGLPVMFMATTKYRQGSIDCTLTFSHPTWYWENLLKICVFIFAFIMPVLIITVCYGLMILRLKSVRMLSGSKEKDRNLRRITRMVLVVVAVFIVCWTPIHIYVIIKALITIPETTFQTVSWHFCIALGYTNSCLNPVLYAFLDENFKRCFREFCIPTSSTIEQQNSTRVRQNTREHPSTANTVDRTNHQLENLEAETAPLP"}, "source": "paper PMC1090567", "about": "“S-Nitrosothiols modulate G protein-coupled receptor signaling in a reversible and highly receptor-specific manner” (BMC Cell Biology, 2005)", "biological_target": "T1, μ-opiate (Rattus norvegicus, UniProt P33535)", "T1 construct": "gene Oprm1; native receptor in rat forebrain P2 membranes", "experiment": "[…]GTPγS binding, rat forebrain membranes", "type": "biochemical", "details": "agonist; control without GSNO; 10 μM GDP, pH 7.4, 25 °C", "data": [{"smiles": "C[C@@H](NC(=O)[C@@H](N)Cc1ccc(O)cc1)C(=O)NCC(=O)N(C)[C@@H](Cc1ccccc1)C(=O)NCCO", "note": "[DAMGO, [D-Ala^2, N-Me-Phe^4, Gly^5-ol]-enkephalin]", "values": [{"measurement": "Control / log(EC50)", "result": "-6.85 ± 0.09"}]}]}
